scFv variants of Ab-14 (heavy chain) against a SARS-CoV-2 spike peptide

Antigen: PDVDLGDISGINAS, a 14-residue peptide of the SARS-CoV-2 spike HR2 region.

Parent scFv Ab-14: VH joined to VL by a 15-residue (Gly4Ser)3 linker. Changes lie in the heavy chain CDRs alone.
VH: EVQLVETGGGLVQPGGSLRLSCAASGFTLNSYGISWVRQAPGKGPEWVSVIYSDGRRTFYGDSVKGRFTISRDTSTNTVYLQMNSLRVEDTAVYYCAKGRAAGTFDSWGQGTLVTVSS
VL: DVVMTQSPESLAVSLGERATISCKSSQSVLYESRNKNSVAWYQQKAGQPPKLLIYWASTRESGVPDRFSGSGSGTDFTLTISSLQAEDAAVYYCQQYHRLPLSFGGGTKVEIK

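The parent was found by panning a naive human phage display library on the peptide. Designed CDR sequences, proposed from the first random library and measured here. Their group label is 14H_En_Gibbs (En: ensemble of fine-tuned language models; Gibbs: Gibbs sampling). The scFvs were displayed on barcoded MATa yeast, the peptide on MATalpha yeast. Binding brings cells together so that they mate, and sequencing counts the barcode pairs among the diploids. A regression on co-assayed BCL2-family reference pairs converts the normalised counts of each replicate to an apparent Kd. The assay was run in six technical replicates.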

Variants are written as CDR1, CDR2 and CDR3 of the heavy chain (limits as in the source). Parent: GFTLNSYGIS, VIYSDGRRTFYGDSVK, GRAAGTFDS. Values are log10 of the apparent Kd in nM; lower means stronger binding. Where no diploid with the target was found in that replicate, the entry reads "ND": below detection, most likely a poor binder, though not proof of it. The authors' rule: three or more of the six replicates give a measured affinity, fewer mean a poor binder. Values of this round are not directly comparable with the first-round values of the same sequences. As a blank, each scFv also met three strains without target: over all heavy chain designs, 1% of these pairings were detected, typically at 2.08 and seldom below 0.84. Also given: how often the same scFv was detected with the empty control strains, with their mean in brackets.

CDR-H1	CDR-H2	CDR-H3	replicates, log10 nM	empty controls
GFSLDEYGIS	VIYADGTRTFVATSVK	GGLVAYFDQ	ND / ND / ND / ND / ND / ND	0 of 18
GQDLESYGIS	VIYADGRRKAYHDSVK	GTNGSVSFV	ND / ND / ND / ND / ND / ND	0 of 18
GFKIDEYGIS	VIYADGHRTAYSEQVK	GVNMGFMVE	ND / ND / ND / ND / ND / ND	2 of 18 (1.29)
GFGLGEYGIS	VIYADGTRAAYVTSVK	GSIAGTFFT	ND / ND / ND / ND / ND / ND	0 of 18
GFEIQEYGIS	VIYADGRRTAYAEQVK	GTMGGTFST	1.32 / 1.04 / 1.05 / 0.94 / 1.12 / 0.84	0 of 18
GFDINEYGVS	VIYADGMRSYYAGKVK	GSEGALFDV	ND / ND / ND / ND / ND / ND	2 of 18 (1.84)
GVDIDEYGIS	VIYADGIRTFYIDKVK	GNVGGMFDT	0.84 / 0.79 / 0.29 / 0.20 / 0.39 / 1.37	0 of 18
GFQLDEYGIS	VIYADGSRTAYADSVK	GAYKFSLVV	ND / ND / ND / ND / ND / ND	0 of 18
GFNIEEYGIS	VIYADGRRTAYAEPVK	GEDGGTIDT	ND / ND / ND / 2.06 / ND / 1.98	0 of 18
GFDLGEYGIS	VIYADGQRVSYQDAVK	GQSSVYYLA	ND / ND / ND / ND / ND / ND	0 of 18
GFNLDEYGIS	VIYADGKREAYANKVK	GEQGSFFST	ND / ND / ND / ND / ND / ND	0 of 18
GFSLDEYGIS	VIYADGLRSKYADKVK	GQLQQYGDT	ND / ND / ND / ND / ND / 2.07	0 of 18
GRDLDEYGIS	VIYADGTRKMYAVNFK	GEHGGTFLM	ND / ND / ND / ND / ND / ND	0 of 18
GFDLNEYGVS	VIYADGQRTYYTDSVK	GKVGDLLMA	0.34 / -0.24 / -0.50 / -0.02 / -0.42 / 0.25	0 of 18
GFDLNEYGVS	VIYADGQRRAYAANFK	GVNVGGLDI	ND / ND / ND / ND / ND / ND	0 of 18
GFDLDEMGIS	VIYADGRRTAYSNAFK	GNLQYGFMV	ND / ND / ND / ND / ND / ND	0 of 18
GFALDEYGIS	VIYADGSRTVYAGDVK	GMLGVAFDM	ND / ND / ND / ND / 0.90 / ND	0 of 18
EFDLNEYGVS	VIYADGHRTFYADHVK	GQEAGFFFM	ND / ND / ND / ND / ND / ND	1 of 18 (2.91)
GKSLDEYGIS	VIYADGLRKEYTDSVK	GQFDDAMDL	ND / ND / ND / ND / ND / ND	2 of 18 (1.64)
GFNLEEYGIS	VIYADGFRASYQDKVK	GQNGSVVLR	1.24 / ND / ND / ND / ND / ND	0 of 18
GFDLAEYGIS	VIYADGMRVSYDQNVK	GTGGGSFNF	ND / ND / ND / ND / ND / ND	0 of 18
GFDLLEYGIS	VIYADGMRVAYAKDVK	GMEGQFVVD	ND / ND / ND / ND / ND / ND	0 of 18
GFALNEYGIS	VIYADGIRSRYANKVK	GNQAGTLLI	ND / ND / ND / ND / ND / ND	0 of 18
GNGLQEYGIS	VIYADGLRSMYANSVK	GNLDGMVLV	ND / ND / ND / ND / ND / ND	0 of 18
GFDFQEYGIS	VIYADGKRTAYANSVK	GGSNALTTG	ND / ND / ND / ND / ND / ND	0 of 18
GFTLDEYGIS	VIYADGVRVEYADNVK	GSHGLYLML	ND / ND / ND / ND / ND / ND	0 of 18
GFDLNEYGIS	VIYADGSRVAYAQNVK	GKNDAISSN	ND / ND / ND / ND / ND / ND	0 of 18
GFNLNEYGIS	VIYADGNRNMYADSVK	GLHANFFDI	ND / ND / ND / ND / ND / ND	0 of 18
KFDIEEYGIS	VIYADGERTSYSNAVK	GNMGGTFLI	ND / 1.27 / ND / ND / ND / ND	0 of 18
GFQINEYGIS	VIYADGLRAAYSQDVK	GMDTGDFVD	ND / 1.60 / ND / ND / ND / ND	0 of 18
GFDLLEYGIS	VIYADGSRVAYKNNVK	GKNGATGSN	ND / ND / ND / ND / ND / ND	0 of 18
GMSLGEYGIS	VIYADGERAAYTNNFK	GVMAGTGDV	ND / ND / ND / ND / ND / ND	0 of 18
GFDLTEYGIS	VIYADGRRTEYSNDVK	GQVAGHFLD	ND / ND / ND / ND / ND / ND	0 of 18
GKTLDEYGIS	VIYADGMRTQYIDQVK	GGIVGWNMT	ND / ND / ND / ND / ND / ND	0 of 18
GFDLAEQGIS	VIYADGMRTAYAQNFK	GYIGGTIMD	ND / ND / ND / ND / ND / ND	0 of 18
GWDLEHYGIS	VIYADGKRSEYSNAVK	GQQAGTFNT	0.17 / 1.11 / 0.46 / 1.16 / 0.54 / 0.26	0 of 18
GFNLDEYGVS	VIYADGQRTQYAQDVK	GKTGFHLFI	-0.47 / -0.64 / -0.46 / -0.71 / -1.04 / -0.64	0 of 18
GFDIDEYGIS	VIYADGTRTAYDNSVK	GQMAGFFTN	ND / ND / 2.65 / ND / ND / ND	0 of 18
GFDLEKYGIS	VIYADGYRSAYASNVK	GGTAGTFHF	1.71 / 1.91 / 0.94 / 2.43 / 0.92 / 1.58	0 of 18
GVNLDEYGIS	VIYADGVRQHYADSVK	GMHGDFGVV	-0.30 / -0.34 / -0.42 / -0.35 / -0.66 / 0.06	1 of 18 (1.69)

Source: Li et al. 2023 (doi:10.1038/s41467-023-39022-2), MIT Lincoln Laboratory and A-Alpha Bio; data file from the FLAb repository.